The entries are a selection whose mix differs from that of the whole data set. Some of these compounds have results that are not shown, active ones among them. The source made the active and inactive calls.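 Rule for the calls: active = inhibition of aptamer binding above 40%, roughly 3 SD of noise, on plates passing a quality check; inactive = the rest.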
Each molecule was assayed against Beta-adrenergic receptor kinase 1 (Homo sapiens) (UniProt P25098) (assay: compounds blocking aptamer binding on GRK2 – biochemical, human GRK2, bead flow cytometry, HTS, primary screen (AID 488847;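 note: median bead fluorescence of bound FAM aptamer so fluorescent compounds give negative values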)). Settings: FAM-aptamer displacement from GRK2, at 10 µM, hits give high values.

The chains behind the UniProt entries cited, without tags or fusion partners.
UniProt P25098, whole entry: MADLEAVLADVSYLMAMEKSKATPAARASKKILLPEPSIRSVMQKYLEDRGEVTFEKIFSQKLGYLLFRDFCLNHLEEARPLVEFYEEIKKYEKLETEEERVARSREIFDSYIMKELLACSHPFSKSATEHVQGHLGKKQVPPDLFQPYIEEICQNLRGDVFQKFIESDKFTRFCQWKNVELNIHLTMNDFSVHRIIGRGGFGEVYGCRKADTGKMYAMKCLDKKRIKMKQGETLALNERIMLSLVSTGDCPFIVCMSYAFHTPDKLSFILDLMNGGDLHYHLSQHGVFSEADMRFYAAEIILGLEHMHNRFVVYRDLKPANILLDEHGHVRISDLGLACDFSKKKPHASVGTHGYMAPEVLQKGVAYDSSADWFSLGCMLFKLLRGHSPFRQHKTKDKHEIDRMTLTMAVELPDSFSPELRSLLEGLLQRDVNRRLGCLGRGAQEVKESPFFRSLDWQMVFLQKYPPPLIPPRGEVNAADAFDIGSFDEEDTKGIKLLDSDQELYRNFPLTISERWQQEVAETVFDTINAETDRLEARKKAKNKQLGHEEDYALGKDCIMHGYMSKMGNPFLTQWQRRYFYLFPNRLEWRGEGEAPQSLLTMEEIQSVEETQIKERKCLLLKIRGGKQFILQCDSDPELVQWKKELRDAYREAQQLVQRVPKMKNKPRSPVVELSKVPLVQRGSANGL

Row | Compound | inhibition of aptamer binding
1 | CC(C)N1C(=O)CC2(CCN(CCOC(=O)C(O)(c3ccccc3)c3ccccc3)CC2)C1=O | inactive: 2%
2 | COc1cc(SC)ccc1C(=O)NCC1(N(C)C)CCCCC1 | inactive: 0%
3 | CCN(CC)CC(C)C(C)OC(=O)C(O)(c1ccccc1)c1ccccc1 (centres undefined) | inactive: 0%
4 | Cc1ccc(C(=O)NCC2(N3CCCCC3)CCCCC2)cc1 | inactive: 0%
5 | O=C(NCC1(N2CCCCC2)CCCCC1)c1cc([N+](=O)[O-])ccc1Cl | inactive: 0%
6 | CN1[C@@H]2CC[C@H]1CC(OC(=O)C(O)(c1ccccc1)c1ccccc1)C2 (some centres undefined) | inactive: 0%
7 | O=C(NCC1(N2CCCCC2)CCCCC1)c1cc(F)c(F)cc1Cl | inactive: 0%
8 | C=CCN1CCN(CCOC(=O)C(O)(c2ccccc2)c2ccccc2)CC1 | inactive: 0%
9 | O=C(NCC1(N2CCCCC2)CCCCC1)c1cccc(Br)c1 | inactive: 5%
10 | CCN1CCCC(OC(=O)C2(O)c3ccccc3C=Cc3ccccc32)C1 (centres undefined) | inactive: 0%
11 | Cc1cc(C(=O)NCC2(N3CCCCC3)CCCCC2)ccc1[N+](=O)[O-] | inactive: 0%
12 | COc1ccc(C(=O)NCC2(N(C)C)CCCCC2)cc1 | inactive: 0%
13 | CN(C)c1ccc(C(=O)NCC2(N(C)C)CCCCC2)cc1 | inactive: 0%
14 | CN(C)C1CCCC1OC(=O)C(O)(c1ccccc1)c1ccccc1 (centres undefined) | inactive: 0%
15 | Cc1ccccc1C(=O)NCC1(N2CCCCC2)CCCCC1 | inactive: 0%
16 | COc1ccc(Cl)cc1C(=O)NCC1(N(C)C)CCCCC1 | inactive: 0%
17 | COc1cccc(C(=O)NCC2(N3CCCCC3)CCCCC2)c1 | inactive: 2%
18 | O=C(NCC1(N2CCCCC2)CCCCC1)c1cccc(Cl)c1 | inactive: 0%
19 | CN(C)C1(CNC(=O)c2ccc(Br)cc2)CCCCC1 | inactive: 0%
20 | COc1cc(C(=O)NCC2(N(C)C)CCCCC2)c([N+](=O)[O-])cc1OC | inactive: 0%
21 | COc1ccc(Br)c(C(=O)NCC2(N3CCCCC3)CCCCC2)c1 | inactive: 0%
22 | CN(C)c1cccc(C(=O)NCC2(N(C)C)CCCCC2)c1 | inactive: 1%
23 | CC(C)Oc1ccc(C(=O)NCC2(N(C)C)CCCCC2)cc1 | inactive: 1%
24 | O=C(OC1CN2CCC1CC2)C(CO)(c1ccccc1)c1ccccc1 (centres undefined) | inactive: 0%

Source: PubChem BioAssay AID488847 (NMMLSC, 2010)
